Test results from PMC10214524, “A Systematic Approach to the Discovery of Protein–Protein Interaction Stabilizers” (ACS Central Science, 2023).
“And” between values parts separate entries of the source, which are not always exact repeats. Equal values may be shown once.

By UniProt entry, the sequences of proteins in these tests, tags left out. Residues count along the entry.
UniProt P31947, 1-231 limits assumed: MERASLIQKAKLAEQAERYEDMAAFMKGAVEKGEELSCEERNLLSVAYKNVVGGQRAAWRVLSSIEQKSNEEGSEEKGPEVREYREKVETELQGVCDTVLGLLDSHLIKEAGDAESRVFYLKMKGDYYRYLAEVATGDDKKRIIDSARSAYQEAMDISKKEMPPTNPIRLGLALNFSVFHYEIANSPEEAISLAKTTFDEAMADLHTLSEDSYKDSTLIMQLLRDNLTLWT

Assays:
[1] = target: T1, 14-3-3σ/C-RAF phosphopeptide complex (Homo sapiens, UniProt P31947); assay: Primary disulfide tethering screen (intact-protein LC/MS), C-RAF peptide; details: 200 µM fragment, 100 nM 14-3-3σ, 18 µM CRAF-pp, 250 μM BME, 3 h
[2] = target: T1, 14-3-3σ/C-RAF phosphopeptide complex; assay: Fluorescence anisotropy dose response (FADR), C-RAF peptide; details: for EC50: 50 μM BME, C-RAF peptide
[3] = target: T1, 14-3-3σ/C-RAF phosphopeptide complex; assay: Mass spectrometry dose response (MSDR), C-RAF peptide; details: for DR50: 250 μM BME, C-RAF peptide present
[4] = target: T2, 14-3-3σ/FOXO1 phosphopeptide complex (Homo sapiens, UniProt P31947); assay: Mass spectrometry dose response (MSDR), FOXO1 peptide; details: for DR50: 250 μM BME, FOXO1 peptide present
[5] = target: T2, 14-3-3σ/FOXO1 phosphopeptide complex; assay: Fluorescence anisotropy dose response (FADR), FOXO1 peptide; details: for EC50: 50 μM BME, FOXO1 peptide
[6] = target: T2, 14-3-3σ/FOXO1 phosphopeptide complex; assay: 14-3-3σ protein titration (fluorescence anisotropy) with compound, FOXO1 peptide; details: 1 mM compound; for Kd: read-out: KD_app, protein titration, 50 μM BME, fluorescein-labeled FOXO1
[7] = target: T2, 14-3-3σ/FOXO1 phosphopeptide complex; assay: Primary disulfide tethering screen (intact-protein LC/MS), FOXO1 peptide; details: 200 µM fragment, 100 nM 14-3-3σ, 750 nM FOXO1-pp, 250 μM BME, 3 h
[8] = target: T3, 14-3-3σ/ERα phosphopeptide complex (Homo sapiens, UniProt P31947); assay: Fluorescence anisotropy dose response (FADR), ERα peptide
[9] = target: 14-3-3σ/SOS1 phosphopeptide complex (Homo sapiens, UniProt P31947); assay: Fluorescence anisotropy dose response (FADR), SOS1 peptide
[10] = target: T1, 14-3-3σ/C-RAF phosphopeptide complex; assay: 14-3-3σ protein titration (fluorescence anisotropy) with compound, C-RAF peptide; details: 1 mM compound; for fold stab.: KD_DMSO / KD_app, C-RAF peptide
[11] = target: 14-3-3σ/USP8 phosphopeptide complex (Homo sapiens, UniProt P31947); assay: Fluorescence anisotropy dose response (FADR), USP8 peptide
[12] = target: T3, 14-3-3σ/ERα phosphopeptide complex; assay: Mass spectrometry dose response (MSDR), ERα peptide; details: 250 μM BME, ERα peptide present
[13] = target: T3, 14-3-3σ/ERα phosphopeptide complex; assay: Primary disulfide tethering screen (intact-protein LC/MS), ERα peptide; details: 200 µM fragment, 100 nM 14-3-3σ, 2 µM ERα-pp, 250 μM BME, 3 h

Which “% Tethering” value [1] does the source give for `CN(C)CCSSCCNC(=O)C1CCCN(C(=O)C(C)(C)Oc2ccc3ccccc3c2)C1` (stereo not drawn) here?
The value was 51.1%.

What about the EC50 [2] of the same compound?
The EC50 was over 2000 µM.

And the DR50 [3]?
Its DR50 is 5.82 µM.

`CN(C)CCSSCCNC(=O)C1CCN(C(=O)c2cc(Cl)c(O)c(Cl)c2)CC1` was tested. Which DR50 [4] did it give?
The DR50 was 4.78 µM.

And the EC50 [5]?
The EC50 was 2.41 µM.

What about the Kd [6] of the same compound?
The Kd was 0.069 µM.

What about the “% Tethering” value [7] of the same compound?
The value was 66.6%.

Which results are given for `CN(C)CCSSCCNC(=O)C1CCN(C(=O)c2ccc3[nH]nnc3c2)CC1`?
Kd [6]: 0.117 µM; % Tethering [7]: 83.6%

With `CN(C)CCSSCCNC(=O)C1CCCN(C(=O)c2cccc(Oc3ccccc3)c2)C1` (stereo not drawn) as the compound, how does the “stabilization of FOXO1 peptide binding to 14-3-3σ over DMSO control” value [5] read?
Its value is “No increased stabilization”.

What about the “stabilization of ERα peptide binding to 14-3-3σ over DMSO control” value [8] of the same compound?
Its value is “No increased stabilization”.

What about the “stabilization of SOS1 peptide binding to 14-3-3σ over DMSO control” value [9] of the same compound?
Its value is “No increased stabilization”.

What about the “% Tethering” value [1] of the same compound?
The value was 48.3%.

What about the fold stab. [10] of the same compound?
Its fold stab. is 430 fold and 426 fold.

And the fold stab. ([10]; listed as 918039 (6))?
Its fold stab. is 426 fold.

What about the Kd ([10]; read-out: KD_app, protein titration, 50 μM BME, fluorescein-labeled C-RAF) of the same compound?
Its Kd is 0.1 µM.

And the EC50 [2]?
Its EC50 is 1.33 µM.

And the “stabilization of USP8 peptide binding to 14-3-3σ over DMSO control” value [11]?
The value was “No increased stabilization”.

And the “fold lower DR50 in the presence of C-RAF peptide compared to apo 14-3-3σ” value [3]?
Its value is 230 fold.

And the DR50 [3]?
The DR50 was 8.78 µM.

`CN(C)CCSSCCNC(=O)C1CCN(C(=O)Cc2ccc(F)cc2)CC1` was tested. Which DR50 [12] did it give?
Its DR50 is over 2000 µM.

And the “% Tethering” value [1]?
Its value is 63.7%.

And the EC50 [2]?
The EC50 was 0.58 µM.

What about the “% Tethering” value [13] of the same compound?
Its value is 37.1%.

What about the DR50 [3] of the same compound?
The DR50 was 5.45 µM.

Which results are given for `CN(C)CCSSCCNC(=O)C1CCCN(C(=O)c2cc(Cl)cc(Cl)c2N)C1` (stereo not drawn)?
fold better DR50 in the presence of FOXO1 phosphopeptide than apo 14-3-3σ and all other phosphopeptide clients [4]: > 450 fold; DR50 [4]: 2.2 µM; EC50 [5]: 0.85 µM; stabilization of ERα peptide binding to 14-3-3σ over DMSO control [8]: No increase stabilization; stabilization of SOS1 peptide binding to 14-3-3σ over DMSO control [9]: No increase stabilization; fold stab. ([6]; KD_DMSO / KD_app, FOXO1 peptide): 4 fold; Kd [6]: 0.0106 µM; % Tethering [7]: 68.7%; stabilization of C-RAF peptide binding to 14-3-3σ over DMSO control [2]: No increase stabilization; stabilization of USP8 peptide binding to 14-3-3σ over DMSO control [11]: No increase stabilization

`Cc1cc(C)c2ccc(C(=O)NCCSSCCN(C)C)nc2c1O` was tested. Which DR50 [12] did it give?
Its DR50 is 1900 µM.

What about the EC50 ([8]; 50 μM BME, ERα peptide) of the same compound?
Its EC50 is over 2000 µM.

And the “% Tethering” value [7]?
Its value is 35.4%.

And the “% Tethering” value [13]?
Its value is 40.5%.
